# Values of other authors as cited in paper PMC7461116, “Synthesis, Anticonvulsant and Antinociceptive Activity of New Hybrid Compounds: Derivatives of 3-(3-Methylthiophen-2-yl)-pyrrolidine-2,5-dione” (International Journal of Molecular Sciences, 2020).
# System: motor impairment on rotarod
# Conditions: mice ip, reference AEDs; cited from earlier work
compound,measurement,value
"CCCC(CCC)C(=O)O [VPA, valproic acid]",NT TD50,430.8 (407.9–454.9) mg/kg
